Reference: publication PMC7611940, “A Conformation Selective Mode of Inhibiting SRC Improves Drug Efficacy and Tolerability” (Cancer Research, 2021)

By UniProt entry, the sequences of proteins in these tests, tags left out. Where a name states a change or a piece, a line headed by the entry shows the natural chain unless it says otherwise.
UniProt Q96GD4, whole entry: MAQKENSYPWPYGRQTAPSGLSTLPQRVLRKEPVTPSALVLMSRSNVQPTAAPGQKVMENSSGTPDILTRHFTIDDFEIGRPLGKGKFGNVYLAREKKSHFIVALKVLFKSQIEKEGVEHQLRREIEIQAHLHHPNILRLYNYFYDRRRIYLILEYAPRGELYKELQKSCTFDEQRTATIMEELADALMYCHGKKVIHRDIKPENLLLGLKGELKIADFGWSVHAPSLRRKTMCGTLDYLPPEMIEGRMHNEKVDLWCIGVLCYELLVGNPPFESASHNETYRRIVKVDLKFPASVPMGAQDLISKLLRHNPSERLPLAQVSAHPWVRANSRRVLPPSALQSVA
UniProt P50613: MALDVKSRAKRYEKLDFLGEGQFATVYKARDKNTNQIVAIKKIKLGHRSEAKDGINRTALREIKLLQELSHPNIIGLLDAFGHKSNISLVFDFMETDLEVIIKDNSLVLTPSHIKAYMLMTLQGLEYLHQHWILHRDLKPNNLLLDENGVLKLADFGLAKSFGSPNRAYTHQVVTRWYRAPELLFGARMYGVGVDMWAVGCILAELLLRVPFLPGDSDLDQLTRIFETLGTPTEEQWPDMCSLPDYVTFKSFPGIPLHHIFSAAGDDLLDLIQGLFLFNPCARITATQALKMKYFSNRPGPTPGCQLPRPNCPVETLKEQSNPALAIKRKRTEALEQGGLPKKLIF
UniProt P41240: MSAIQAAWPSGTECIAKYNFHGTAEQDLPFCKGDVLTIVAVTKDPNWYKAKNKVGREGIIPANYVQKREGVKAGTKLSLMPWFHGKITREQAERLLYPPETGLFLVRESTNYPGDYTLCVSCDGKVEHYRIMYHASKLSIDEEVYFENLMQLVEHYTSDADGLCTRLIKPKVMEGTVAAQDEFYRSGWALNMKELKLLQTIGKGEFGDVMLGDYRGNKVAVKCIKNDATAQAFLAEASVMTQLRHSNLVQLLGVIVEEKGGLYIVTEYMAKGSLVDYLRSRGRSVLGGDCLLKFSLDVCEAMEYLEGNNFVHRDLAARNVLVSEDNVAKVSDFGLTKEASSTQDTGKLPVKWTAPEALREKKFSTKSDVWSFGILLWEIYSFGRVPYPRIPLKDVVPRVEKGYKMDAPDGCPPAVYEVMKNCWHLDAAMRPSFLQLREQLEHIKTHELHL
UniProt P51617, whole entry: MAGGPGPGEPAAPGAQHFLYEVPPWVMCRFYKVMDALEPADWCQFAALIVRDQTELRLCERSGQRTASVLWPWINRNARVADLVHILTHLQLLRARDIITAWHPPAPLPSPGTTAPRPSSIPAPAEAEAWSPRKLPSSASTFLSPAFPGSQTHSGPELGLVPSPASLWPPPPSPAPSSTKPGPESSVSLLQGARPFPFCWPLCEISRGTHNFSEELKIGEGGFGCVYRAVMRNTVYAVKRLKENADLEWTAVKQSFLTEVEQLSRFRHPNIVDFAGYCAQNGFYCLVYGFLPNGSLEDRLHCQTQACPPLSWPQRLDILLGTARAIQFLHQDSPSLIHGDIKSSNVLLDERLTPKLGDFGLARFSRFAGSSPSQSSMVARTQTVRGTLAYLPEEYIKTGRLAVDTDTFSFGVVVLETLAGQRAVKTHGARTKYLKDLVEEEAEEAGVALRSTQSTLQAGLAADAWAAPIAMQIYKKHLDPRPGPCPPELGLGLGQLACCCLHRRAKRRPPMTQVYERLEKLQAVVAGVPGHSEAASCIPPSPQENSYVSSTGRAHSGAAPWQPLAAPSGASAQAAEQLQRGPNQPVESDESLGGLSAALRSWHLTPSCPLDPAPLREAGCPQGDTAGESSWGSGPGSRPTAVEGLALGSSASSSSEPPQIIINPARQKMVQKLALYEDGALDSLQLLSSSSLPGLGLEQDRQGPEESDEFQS
UniProt Q7KZI7: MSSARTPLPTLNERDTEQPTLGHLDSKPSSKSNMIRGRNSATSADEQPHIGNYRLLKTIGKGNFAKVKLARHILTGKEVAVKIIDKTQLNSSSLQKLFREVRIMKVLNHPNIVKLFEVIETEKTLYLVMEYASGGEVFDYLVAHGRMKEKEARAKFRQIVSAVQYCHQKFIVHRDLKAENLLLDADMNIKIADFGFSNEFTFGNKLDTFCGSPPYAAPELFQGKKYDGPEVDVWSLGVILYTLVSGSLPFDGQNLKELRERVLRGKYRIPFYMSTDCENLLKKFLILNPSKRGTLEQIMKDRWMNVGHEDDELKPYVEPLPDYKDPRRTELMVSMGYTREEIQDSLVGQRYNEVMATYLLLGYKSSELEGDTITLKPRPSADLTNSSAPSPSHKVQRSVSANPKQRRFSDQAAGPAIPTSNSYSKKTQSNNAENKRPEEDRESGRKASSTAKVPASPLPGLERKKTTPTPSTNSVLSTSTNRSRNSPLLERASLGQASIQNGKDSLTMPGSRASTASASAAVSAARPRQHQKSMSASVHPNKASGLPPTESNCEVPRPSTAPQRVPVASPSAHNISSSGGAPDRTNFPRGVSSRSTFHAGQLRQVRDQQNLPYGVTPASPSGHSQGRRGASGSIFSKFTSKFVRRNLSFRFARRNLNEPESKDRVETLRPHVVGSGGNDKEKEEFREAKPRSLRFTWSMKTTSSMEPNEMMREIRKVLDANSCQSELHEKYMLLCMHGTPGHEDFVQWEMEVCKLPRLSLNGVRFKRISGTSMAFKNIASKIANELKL
UniProt Q8N4C8: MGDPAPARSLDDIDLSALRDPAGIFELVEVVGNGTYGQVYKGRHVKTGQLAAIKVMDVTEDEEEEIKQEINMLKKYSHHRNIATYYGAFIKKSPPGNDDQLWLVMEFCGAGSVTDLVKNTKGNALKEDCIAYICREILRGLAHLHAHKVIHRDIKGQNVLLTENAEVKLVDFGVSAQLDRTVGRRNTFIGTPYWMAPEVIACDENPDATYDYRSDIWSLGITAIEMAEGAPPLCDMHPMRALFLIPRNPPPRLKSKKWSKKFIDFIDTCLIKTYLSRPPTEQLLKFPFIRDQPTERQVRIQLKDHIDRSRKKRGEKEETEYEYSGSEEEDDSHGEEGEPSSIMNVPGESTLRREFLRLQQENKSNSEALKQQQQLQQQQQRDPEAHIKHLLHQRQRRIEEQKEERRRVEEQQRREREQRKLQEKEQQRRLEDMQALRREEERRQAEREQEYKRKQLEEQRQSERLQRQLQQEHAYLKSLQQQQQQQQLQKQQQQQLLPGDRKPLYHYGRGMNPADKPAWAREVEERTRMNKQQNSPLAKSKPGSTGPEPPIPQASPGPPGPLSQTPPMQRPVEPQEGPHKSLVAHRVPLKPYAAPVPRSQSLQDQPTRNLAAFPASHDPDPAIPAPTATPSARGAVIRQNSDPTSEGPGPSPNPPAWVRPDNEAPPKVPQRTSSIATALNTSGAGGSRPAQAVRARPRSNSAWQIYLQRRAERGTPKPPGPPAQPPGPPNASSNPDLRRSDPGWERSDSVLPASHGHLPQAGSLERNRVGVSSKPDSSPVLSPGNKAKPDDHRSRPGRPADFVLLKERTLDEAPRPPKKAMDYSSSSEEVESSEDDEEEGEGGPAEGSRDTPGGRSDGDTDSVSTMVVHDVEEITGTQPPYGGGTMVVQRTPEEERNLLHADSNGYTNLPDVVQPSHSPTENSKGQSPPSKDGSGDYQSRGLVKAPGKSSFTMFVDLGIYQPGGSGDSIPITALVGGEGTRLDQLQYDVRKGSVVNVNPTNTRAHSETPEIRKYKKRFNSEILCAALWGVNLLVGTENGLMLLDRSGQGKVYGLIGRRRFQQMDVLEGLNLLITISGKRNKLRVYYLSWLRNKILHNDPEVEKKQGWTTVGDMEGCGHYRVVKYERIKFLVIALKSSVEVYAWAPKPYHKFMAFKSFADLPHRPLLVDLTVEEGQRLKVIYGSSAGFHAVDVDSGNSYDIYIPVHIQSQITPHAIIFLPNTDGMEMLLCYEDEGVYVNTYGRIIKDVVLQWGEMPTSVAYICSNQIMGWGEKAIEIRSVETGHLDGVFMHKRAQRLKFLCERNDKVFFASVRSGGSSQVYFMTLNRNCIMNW
UniProt Q9H1R3: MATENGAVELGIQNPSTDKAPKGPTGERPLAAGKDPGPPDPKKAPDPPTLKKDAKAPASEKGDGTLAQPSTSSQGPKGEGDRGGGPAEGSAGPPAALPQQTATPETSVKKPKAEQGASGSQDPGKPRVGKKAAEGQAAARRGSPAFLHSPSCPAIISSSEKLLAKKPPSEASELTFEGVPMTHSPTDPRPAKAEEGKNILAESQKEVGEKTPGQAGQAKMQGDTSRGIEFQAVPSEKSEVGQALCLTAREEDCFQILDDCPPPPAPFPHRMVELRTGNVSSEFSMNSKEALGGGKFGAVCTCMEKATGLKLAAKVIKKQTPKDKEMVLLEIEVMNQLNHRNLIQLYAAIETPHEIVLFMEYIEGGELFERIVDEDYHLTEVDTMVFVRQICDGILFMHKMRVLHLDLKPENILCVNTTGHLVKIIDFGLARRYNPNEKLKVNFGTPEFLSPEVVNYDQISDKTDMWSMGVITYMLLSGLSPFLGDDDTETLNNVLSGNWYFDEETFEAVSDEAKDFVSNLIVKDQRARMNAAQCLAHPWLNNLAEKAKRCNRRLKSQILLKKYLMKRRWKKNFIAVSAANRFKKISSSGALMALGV
UniProt Q05513: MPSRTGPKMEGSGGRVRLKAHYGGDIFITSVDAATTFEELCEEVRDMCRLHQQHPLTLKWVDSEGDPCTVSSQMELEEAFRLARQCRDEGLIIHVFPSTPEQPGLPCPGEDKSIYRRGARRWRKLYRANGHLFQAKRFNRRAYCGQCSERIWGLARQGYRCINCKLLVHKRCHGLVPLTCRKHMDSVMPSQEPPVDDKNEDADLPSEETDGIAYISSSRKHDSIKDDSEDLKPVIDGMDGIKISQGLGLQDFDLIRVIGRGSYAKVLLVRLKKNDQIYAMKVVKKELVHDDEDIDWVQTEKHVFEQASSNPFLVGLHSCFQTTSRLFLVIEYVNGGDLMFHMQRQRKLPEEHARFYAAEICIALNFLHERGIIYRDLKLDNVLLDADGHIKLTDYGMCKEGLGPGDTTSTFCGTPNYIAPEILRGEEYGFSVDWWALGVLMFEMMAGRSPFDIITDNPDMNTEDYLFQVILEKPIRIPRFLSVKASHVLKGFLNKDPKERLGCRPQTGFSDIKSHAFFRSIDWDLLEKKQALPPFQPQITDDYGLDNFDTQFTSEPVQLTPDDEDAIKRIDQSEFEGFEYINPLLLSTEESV
UniProt P04629: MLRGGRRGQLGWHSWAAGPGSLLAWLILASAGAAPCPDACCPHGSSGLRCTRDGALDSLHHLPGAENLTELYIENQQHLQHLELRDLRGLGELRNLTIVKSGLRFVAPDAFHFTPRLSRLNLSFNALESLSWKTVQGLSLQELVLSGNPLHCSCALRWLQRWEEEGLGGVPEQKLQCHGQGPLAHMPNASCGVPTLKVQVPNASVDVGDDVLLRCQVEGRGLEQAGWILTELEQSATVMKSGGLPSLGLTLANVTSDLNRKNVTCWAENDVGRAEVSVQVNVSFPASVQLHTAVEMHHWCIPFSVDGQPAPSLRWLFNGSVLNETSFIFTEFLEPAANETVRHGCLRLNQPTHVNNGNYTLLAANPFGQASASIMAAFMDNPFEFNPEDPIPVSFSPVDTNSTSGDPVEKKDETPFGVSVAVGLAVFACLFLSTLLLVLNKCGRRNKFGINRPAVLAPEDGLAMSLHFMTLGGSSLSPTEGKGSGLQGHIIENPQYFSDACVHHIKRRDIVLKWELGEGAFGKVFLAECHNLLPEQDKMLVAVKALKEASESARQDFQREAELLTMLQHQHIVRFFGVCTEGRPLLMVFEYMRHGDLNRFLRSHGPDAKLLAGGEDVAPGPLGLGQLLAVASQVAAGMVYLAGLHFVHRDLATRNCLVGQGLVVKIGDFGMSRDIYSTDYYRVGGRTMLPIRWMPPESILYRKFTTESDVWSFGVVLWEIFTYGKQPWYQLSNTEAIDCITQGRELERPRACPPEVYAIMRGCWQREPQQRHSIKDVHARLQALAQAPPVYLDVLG
UniProt Q6PHR2: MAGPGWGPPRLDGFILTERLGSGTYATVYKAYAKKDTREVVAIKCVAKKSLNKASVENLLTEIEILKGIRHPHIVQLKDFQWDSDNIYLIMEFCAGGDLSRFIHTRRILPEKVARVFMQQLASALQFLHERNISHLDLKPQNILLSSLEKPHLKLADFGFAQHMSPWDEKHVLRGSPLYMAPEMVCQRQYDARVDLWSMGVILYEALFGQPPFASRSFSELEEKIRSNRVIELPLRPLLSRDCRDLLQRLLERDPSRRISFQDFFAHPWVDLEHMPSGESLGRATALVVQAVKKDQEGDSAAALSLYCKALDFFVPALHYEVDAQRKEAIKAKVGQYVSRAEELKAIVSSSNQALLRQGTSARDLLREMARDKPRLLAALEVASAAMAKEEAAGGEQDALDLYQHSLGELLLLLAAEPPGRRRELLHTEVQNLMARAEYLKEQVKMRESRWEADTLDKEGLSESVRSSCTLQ

Columns and labels:
Experiment in all cases: biochemical
Details in all cases: read-out: % remaining activity
ARK5 = target: T1, ARK5 (Homo sapiens, UniProt O60285)
T1 construct: gene NUAK1

AURKB = AURKB (Homo sapiens, UniProt Q96GD4)
CDK3/cyclin E = CDK3/cyclin E (Homo sapiens, UniProt Q00526)
CDK7/cyclin H = CDK7/cyclin H (Homo sapiens, UniProt P50613)
CHK1 = target: T2, CHK1 (Homo sapiens, UniProt O14757)
T2 construct: gene CHEK1

CLK4 = CLK4 (Homo sapiens, UniProt Q9HAZ1)
CSK = CSK (Homo sapiens, UniProt P41240)
DAPK1 = DAPK1 (Homo sapiens, UniProt P53355)
ERK7 = target: T3, ERK7 (Homo sapiens, UniProt Q8TD08)
T3 construct: gene MAPK15

FGFR3 = FGFR3 (Homo sapiens, UniProt P22607)
FLT3 = FLT3 (Homo sapiens, UniProt P36888)
GRK5 = GRK5 (Homo sapiens, UniProt P34947)
HIPK2 = HIPK2 (Homo sapiens, UniProt Q9H2X6)
Haspin = Haspin (Homo sapiens, UniProt Q8TF76)
IRAK1 = IRAK1 (Homo sapiens, UniProt P51617)
LCK2 = target: T4, LCK2 (Homo sapiens, UniProt Q9UPZ9)
T4 construct: gene CILK1

LIMK1 = LIMK1 (Homo sapiens, UniProt P53667)
MARK2 = MARK2 (Homo sapiens, UniProt Q7KZI7)
MINK = target: T5, MINK (Homo sapiens, UniProt Q8N4C8)
T5 construct: gene MINK1

MLK1 = target: T6, MLK1 (Homo sapiens, UniProt P80192)
T6 construct: gene MAP3K9

MNK1 = target: T7, MNK1 (Homo sapiens, UniProt Q9BUB5)
T7 construct: gene MKNK1

MYLK2 = MYLK2 (Homo sapiens, UniProt Q9H1R3)
NEK5 = NEK5 (Homo sapiens, UniProt Q6P3R8)
NLK = NLK (Homo sapiens, UniProt Q9UBE8)
PDGFRb = PDGFRb (Homo sapiens, UniProt P09619)
PIM2 = PIM2 (Homo sapiens, UniProt Q9P1W9)
PKCb1 = target: T8, PKCb1 (Homo sapiens, UniProt P05771)
T8 construct: gene PRKCB

PKCzeta = target: T9, PKCzeta (Homo sapiens, UniProt Q05513)
T9 construct: gene PRKCZ

PLK2 = PLK2 (Homo sapiens, UniProt Q9NYY3)
PRKD1 = PRKD1 (Homo sapiens, UniProt Q15139)
RIPK5 = target: T10, RIPK5 (Homo sapiens, UniProt Q6XUX3)
T10 construct: gene DSTYK

RSK1 = target: T11, RSK1 (Homo sapiens, UniProt Q15418)
T11 construct: gene RPS6KA1

SGK2 = SGK2 (Homo sapiens, UniProt Q9HBY8)
TRKA = target: T12, TRKA (Homo sapiens, UniProt P04629)
T12 construct: gene NTRK1

TRKC = target: T13, TRKC (Homo sapiens, UniProt Q16288)
T13 construct: gene NTRK3

ULK3 = ULK3 (Homo sapiens, UniProt Q6PHR2)

- remaining activity at 1 µM (ARK5): 95.1%
- remaining activity at 1 µM (AURKB): 99.1%
- remaining activity at 1 µM (CDK3/cyclin E): 97.2%
- remaining activity at 1 µM (CDK7/cyclin H): 102%
- remaining activity at 1 µM (CHK1): 99.7%
- remaining activity at 1 µM (CLK4): 101%
- remaining activity at 1 µM (CSK): 5%
- remaining activity at 1 µM (DAPK1): 105%
- remaining activity at 1 µM (FGFR3): 84.7%
- remaining activity at 1 µM (FLT3): 96.8%
- remaining activity at 1 µM (GRK5): 102%
- remaining activity at 1 µM (HIPK2): 95.2%
- remaining activity at 1 µM (Haspin): 105%
- remaining activity at 1 µM (IRAK1): 91.8%
- remaining activity at 1 µM (LCK2): 91.2%
- remaining activity at 1 µM (LIMK1): 79.8%
- remaining activity at 1 µM (MARK2): 99.5%
- remaining activity at 1 µM (MINK): 129%
- remaining activity at 1 µM (MLK1): 95.5%
- remaining activity at 1 µM (MNK1): 97.8%
- remaining activity at 1 µM (MYLK2): 106%
- remaining activity at 1 µM (NEK5): 108%
- remaining activity at 1 µM (NLK): 93.1%
- remaining activity at 1 µM (PDGFRb): 104%
- remaining activity at 1 µM (PIM2): 101%
- remaining activity at 1 µM (PKCb1): 99.8%
- remaining activity at 1 µM (PKCzeta): 96.5%
- remaining activity at 1 µM (PLK2): 99.2%
- remaining activity at 1 µM (PRKD1): 109%
- remaining activity at 1 µM (RIPK5): 110%
- remaining activity at 1 µM (RSK1): 72.2%
- remaining activity at 1 µM (SGK2): 106%
- remaining activity at 1 µM (TRKA): 100%
- remaining activity at 1 µM (TRKC): 99.3%
- remaining activity at 1 µM (ULK3): 97%
SMILES: COc1cc(-c2nn(CCN3CCC(N(C)C)CC3)c3ncnc(N)c23)ccc1NC(=O)OC(C)(C)C [eCF506]
- remaining activity at 1 µM (ERK7): 89.4%
